Data reported in patent publication US7427640B1, “Oil materials comprising dimerdiol ester and cosmetics comprising the ester” (Nippon Fine Chemical Co., Ltd., priority 1999, dated 2008).

How the values were obtained:
[1] = Dispersability for pigment, red iron oxide; type: physicochemical; conditions: amount of tested sample per 100 g of the pigment at flow point
Method: Dispersability for pigment, titanium dioxide, red iron oxide and organic pigment Red No. 202, of the esters obtained in Examples 28-35, polybutene (PARLEAM 18, manufactured by NOF CORP.) and di-isostearyl malate (Cosmol 222, manufactured by Nissin Oil Mills Ltd.) were measured. Titanium dioxide, red iron oxide and organic pigment used in the measurement are PIGMOLITE CR-50, PIGMOLITE BENGARA No. 211 and Red 202, respectively, manufactured by DAITO KASEI KOGYO Co. Ltd. The dispersability is expressed by amount (g) of the tested sample per 100 g of the pigment at wet point (W.P) and flow point (F.P).

[2] = Oxidation stability, Rancimat 676 automatic oils and fats stability test; type: physicochemical
Source text: Index of the oxidation stability was expressed by the time until conductance of the trapped water started rising. […] Index of the oxidation stability was expressed by the time until conductance of the trapped water started rising.

| Molecule | Red iron oxide F.P [1] [g] | Index of oxidation stability [2] |
| --- | --- | --- |
| tocopherol mixture added erucic acid dimerdiol ester [Example 4] | – | 27 h |
| tocopherol mixture added hydrogenated rosin/erucic acid dimerdiol ester [Example 10] | – | 26 h |
| tocopherol mixture added long chain branched fatty acid dimerdiol ester [Example 8] | – | 30 h |

Continued, values first:

| Red iron oxide F.P [1] [g] | Index of oxidation stability [2] | Molecule |
| --- | --- | --- |
| 188 | – | CC(C)CCCCCCCCCCCCCCCOC(=O)CC(O)C(=O)OCCCCCCCCCCCCCCCC(C)C (centres unmarked) [di-iostearyl malate, di-isostearyl malate] |
| – | 48 hrs. or more | tocopherol mixture added isostearic acid dimerdiol ester [Example 12] |
